Data published in patent publication US20240190854A1, “PYRIMIDINE OR PYRIDINE DERIVATIVES USEFUL AS HCN2 MODULATORS” (King's College London, priority 2021, published 2024).

The chains behind the UniProt entries cited, without tags or fusion partners.
UniProt Q9UL51, whole entry: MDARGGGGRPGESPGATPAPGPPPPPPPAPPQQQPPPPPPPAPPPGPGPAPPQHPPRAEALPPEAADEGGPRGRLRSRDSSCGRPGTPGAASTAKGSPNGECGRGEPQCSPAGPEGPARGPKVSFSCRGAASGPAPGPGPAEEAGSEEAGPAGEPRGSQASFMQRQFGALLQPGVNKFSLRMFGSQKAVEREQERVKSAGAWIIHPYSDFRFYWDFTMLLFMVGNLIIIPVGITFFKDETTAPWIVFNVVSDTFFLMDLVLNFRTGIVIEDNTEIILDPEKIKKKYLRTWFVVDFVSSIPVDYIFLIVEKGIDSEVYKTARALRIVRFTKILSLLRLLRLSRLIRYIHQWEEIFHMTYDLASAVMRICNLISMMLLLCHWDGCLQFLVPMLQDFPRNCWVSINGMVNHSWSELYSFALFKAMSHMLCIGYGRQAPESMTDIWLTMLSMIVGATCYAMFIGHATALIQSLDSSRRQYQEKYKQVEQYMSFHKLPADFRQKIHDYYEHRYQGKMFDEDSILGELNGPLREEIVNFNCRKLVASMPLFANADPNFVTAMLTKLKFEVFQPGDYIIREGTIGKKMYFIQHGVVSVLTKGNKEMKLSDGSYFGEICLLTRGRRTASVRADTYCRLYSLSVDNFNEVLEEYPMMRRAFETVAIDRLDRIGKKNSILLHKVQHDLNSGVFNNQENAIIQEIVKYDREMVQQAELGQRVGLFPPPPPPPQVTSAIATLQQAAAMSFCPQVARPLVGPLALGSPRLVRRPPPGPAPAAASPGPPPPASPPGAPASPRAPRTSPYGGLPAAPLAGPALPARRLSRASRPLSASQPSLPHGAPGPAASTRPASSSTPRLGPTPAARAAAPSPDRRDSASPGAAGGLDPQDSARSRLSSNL
UniProt O60741, whole entry: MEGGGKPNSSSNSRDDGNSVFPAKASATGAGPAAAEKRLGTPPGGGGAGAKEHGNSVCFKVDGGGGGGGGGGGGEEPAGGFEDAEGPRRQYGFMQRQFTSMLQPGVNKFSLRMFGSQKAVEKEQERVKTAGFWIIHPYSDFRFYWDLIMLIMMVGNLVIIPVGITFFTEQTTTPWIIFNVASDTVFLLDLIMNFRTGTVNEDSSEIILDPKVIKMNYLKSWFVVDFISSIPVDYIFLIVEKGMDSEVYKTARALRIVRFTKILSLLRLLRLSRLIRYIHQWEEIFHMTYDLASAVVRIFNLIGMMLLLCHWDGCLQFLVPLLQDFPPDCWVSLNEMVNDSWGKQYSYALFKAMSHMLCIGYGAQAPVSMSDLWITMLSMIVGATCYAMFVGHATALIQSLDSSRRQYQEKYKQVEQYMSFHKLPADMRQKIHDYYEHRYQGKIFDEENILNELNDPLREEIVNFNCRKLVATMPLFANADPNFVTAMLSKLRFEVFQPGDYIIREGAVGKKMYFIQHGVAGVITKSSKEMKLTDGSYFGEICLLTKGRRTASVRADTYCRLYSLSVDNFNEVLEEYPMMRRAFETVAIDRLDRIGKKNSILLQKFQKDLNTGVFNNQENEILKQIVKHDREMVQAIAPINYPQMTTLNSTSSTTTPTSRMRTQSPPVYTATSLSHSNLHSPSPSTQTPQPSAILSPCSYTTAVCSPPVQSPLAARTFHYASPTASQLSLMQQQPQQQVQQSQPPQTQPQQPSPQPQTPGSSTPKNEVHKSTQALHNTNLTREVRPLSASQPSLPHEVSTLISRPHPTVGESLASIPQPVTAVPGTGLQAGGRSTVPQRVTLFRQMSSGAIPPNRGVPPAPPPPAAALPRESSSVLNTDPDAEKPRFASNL
UniProt Q9Y3Q4, whole entry: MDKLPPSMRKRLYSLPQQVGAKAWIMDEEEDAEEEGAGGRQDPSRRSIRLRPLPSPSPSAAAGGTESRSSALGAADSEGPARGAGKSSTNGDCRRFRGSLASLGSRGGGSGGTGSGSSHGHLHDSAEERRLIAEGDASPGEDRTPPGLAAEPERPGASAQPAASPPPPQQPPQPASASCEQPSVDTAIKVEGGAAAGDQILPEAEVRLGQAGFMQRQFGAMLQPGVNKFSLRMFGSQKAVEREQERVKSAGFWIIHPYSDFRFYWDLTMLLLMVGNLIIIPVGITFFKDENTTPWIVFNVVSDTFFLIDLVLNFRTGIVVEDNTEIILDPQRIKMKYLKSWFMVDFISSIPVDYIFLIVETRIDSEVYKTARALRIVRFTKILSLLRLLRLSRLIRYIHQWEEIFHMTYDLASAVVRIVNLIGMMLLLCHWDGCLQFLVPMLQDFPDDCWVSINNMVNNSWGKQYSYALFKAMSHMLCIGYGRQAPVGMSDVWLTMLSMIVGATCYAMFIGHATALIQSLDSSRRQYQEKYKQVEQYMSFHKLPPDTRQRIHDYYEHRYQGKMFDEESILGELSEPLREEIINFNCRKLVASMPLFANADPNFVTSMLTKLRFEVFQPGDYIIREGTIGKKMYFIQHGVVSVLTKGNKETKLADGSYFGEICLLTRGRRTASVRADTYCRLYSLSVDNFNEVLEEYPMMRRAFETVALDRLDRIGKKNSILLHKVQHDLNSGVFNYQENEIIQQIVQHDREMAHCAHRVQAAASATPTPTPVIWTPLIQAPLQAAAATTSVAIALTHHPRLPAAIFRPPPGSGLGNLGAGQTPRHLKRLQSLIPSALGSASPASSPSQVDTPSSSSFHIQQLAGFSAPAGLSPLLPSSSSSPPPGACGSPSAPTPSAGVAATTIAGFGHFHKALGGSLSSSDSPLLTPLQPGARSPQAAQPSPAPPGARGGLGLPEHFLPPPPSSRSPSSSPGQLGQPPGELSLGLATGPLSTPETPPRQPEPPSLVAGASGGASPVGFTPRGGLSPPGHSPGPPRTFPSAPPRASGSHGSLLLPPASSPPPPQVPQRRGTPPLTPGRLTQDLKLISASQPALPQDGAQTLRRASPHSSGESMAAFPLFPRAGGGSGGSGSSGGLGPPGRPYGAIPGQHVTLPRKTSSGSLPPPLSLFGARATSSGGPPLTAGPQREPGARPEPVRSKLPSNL

Assays:
Format in all cases: cell-based
HCN2 = HCN2 (Homo sapiens (Human), UniProt Q9UL51); experiment: HCN2 current assay using PatchXpress 7000A; conditions: read-out: PX HCN2 IC50; PatchXpress protocol; tested form: HCl
HCN1 = HCN1 (Homo sapiens (Human), UniProt O60741); experiment: HCN1 current assay using PatchXpress 7000A; conditions: read-out: PX HCN1 IC50; PatchXpress protocol; tested form: HCl
HCN4 = HCN4 (Homo sapiens (Human), UniProt Q9Y3Q4); experiment: HCN4 current assay using PatchXpress 7000A; conditions: read-out: PX HCN4 IC50; PatchXpress protocol; tested form: HCl

N[C@@H](Cc1cccc(F)n1)c1ccccc1-c1noc2ccccc12
IC50 (HCN2): 1000 nM | IC50 (HCN1): 2000 nM | IC50 (HCN4): 10500 nM
